Laboratory results: patent US20040058357A1, “System and method for assaying drugs” (priority 2003, published 2004)

Tested on: hippocampal slices
Details: previously stressed mice; APV 50 μM, DNQX 20 μM

**Q.** How did the “Effect on the evoked pfp” value turn out when dinitroquinoxalinedione was run?
**A.** blocked
